Results as given in ChEMBL document CHEMBL2434899, “Peripherally selective diphenyl purine antagonist of the CB1 receptor” (J Med Chem, 2013).

Species on record: Homo sapiens
Assay: Selectivity ratio of Ki for CB2 receptor (unknown origin) to Ki for human CB1 receptor

## O=C(CC1CCCCC1)NC1CCN(c2ncnc3c2nc(-c2ccccc2Cl)n3-c2ccc(Cl)cc2)CC1
  Ratio Ki: 1220
